These results are taken from patent publication US20160193148A1, “LIPOSOMAL FORMULATIONS FOR THE TREATMENT OF BACTERIAL INFECTIONS” (UNIVERSITY OF GEORGIA RESEARCH FOUNDATION, INC., priority 2013, published 2016).

A short description of series [1]: Repeated dose IV LG or FG: indices of renal injury and tolerability in foals. How it is done:
Subsequently, twelve healthy foals were administered either LG or FG at 6.6 mg/kg IV q 24 hours for 7 doses, and urinary protein, creatinine, γ-glutamyltransferase, and electrolytes were measured on days 0, 3 and 7 to quantify renal injury. Concentrations of gentamicin were measured using HPLC-MS.
Each dose was diluted in 250 ml of sterile 0.9% saline and administered over 15 minutes via an indwelling 14 G catheter placed in a jugular vein. Blood samples for plasma separation and measurement of gentamicin concentrations were obtained on day 1 and on day 7 at the times listed for study 1. Bronchoalveolar lavage fluid was collected 2, 6 and 24 hours after the end of infusion on day 7. Urine was collected the day prior to the first drug dose (day 0) and again 2 hours after the end of the infusion on days 3 and 7. Foals were sedated with xylazine hydrochloride (1.1 mg/kg bwt IV) and anesthetized with ketamine (2.2 mg/kg bwt IV) to allow passage of a urinary catheter using aseptic techniques. Urinalysis was performed and urine and concurrently obtained plasma samples were submitted for measurement of creatinine, γ-glutamyltransferase (GGT), protein, calcium, chloride, magnesium, sodium, and potassium concentrations. Fractional excretion of electrolytes, urinary GGT to creatinine ratio, and urinary protein to creatinine ratios were calculated. Prior to analysis for gentamicin concentration by LC-MS, urine and plasma samples were centrifuged at 400×g for 10 minutes and the supernatant was frozen at −80° C. until assayed.
Normality and equality of variance of the data were assessed with use of the Shapiro-Wilk and Levene tests, respectively. Data that were not normally distributed were log or rank transformed. The paired t test or the Wilcoxon rank sum test was used to compare IV pharmacokinetic variables between LF and FG. The effects of drug (LG vs FG), administration route (IV vs nebulized) and the interactions between drug and administration route on PELF and BAL cell pharmacokinetic variables were assessed using a two-way ANOVA for repeated measurement. For study 2, the effects of drug (LG vs FG), time (day 0, day 3, and day 7), and the interactions between drug and time on renal indices were assessed using a two-way ANOVA with one factor repetition (time). When warranted, multiple pairwise comparisons were done by use of the Holm-Sidak test. The paired t test or the Wilcoxon rank sum test was used to compare IV pharmacokinetic variables obtained on day 1 to those obtained on day 7. Significance was set at P<0.05.

Series [2] in a line: Plasma pharmacokinetics after single IV or nebulized dose in foals. The settings on record: IV 6.6 mg/kg. The protocol: Eight healthy 5-7-week-old Quarter Horse foals were randomly assigned to one of 4 groups using a balanced Latin-square design. Foals were considered healthy on the basis of physical examinations, complete blood cell counts and plasma biochemical profiles. […] The liposome gentamicin formulation was nebulized using Nortev FLEXINEB. For each treatment, gentamicin was administered over a period of 15 minutes. There was a washout period of 7-14 days between each treatment.
For the BAL collection, foals were sedated with xylazine and butorphanol. Concentrations of gentamicin were measured in plasma and in bronchoalveolar cells using HPLC-MS.
Eight foals received a single IV or nebulized dose (6.6 mg/kg bwt) of FG^h or LG in a balanced Latin square design. Beginning at 5-7 weeks of age, every foal received each of the 4 possible drug-route combinations with a 14-day washout period between each administration. Intravenous FG and LG were diluted in 250 ml of sterile 0.9% saline and administered via a jugular catheter as a constant rate infusion over 15 min. Nebulized FG and LG were administered by inhalation over 15 minutes via a commercial equine nebulizer. To ensure equivalent rate of delivery, FG was diluted to the same volume as LG with sterile 0.9% saline. Particle size of nebulized LG was verified using laser diffraction. Blood samples for plasma separation were obtained from a catheter placed in the contralateral jugular vein prior to each drug administration, and at 5, 10, 20, 30, 45 minutes and 1, 1.5, 2, 3, 4, 6, 8, 12, 16, 24 and 48 hours after the end of the 15 minute IV infusion or nebulization period. Bronchoalveolar lavage (BAL) fluid was collected at 2, 4, 8, 24, and 48 hours. Foals were sedated with xylazine hydrochloride (0.5 mg/kg bwt IV) and butorphanol tartrate (0.07 mg/kg bwt IV) prior to collection of BAL fluid. Prior to analysis for gentamicin concentration, blood samples were centrifuged at 400×g for 10 minutes and the resultant plasma frozen at −80° C. until assayed.
Briefly, gentamicin was extracted from plasma (250 μl) and urine (500 μl) using protein precipitation with an equal volume of ice-cold 90:10 acetonitrile: 0.2% formic acid (v/v). Extracted samples were centrifuged (2° C. at 10,000×g for 10 min) twice. Two-hundred microliters of the supernatants were transferred to polypropylene inserts for injection. The supernatant derived from the lyzed BAL cell pellet was transferred to polypropylene inserts for direct injection without further processing. […] An aliquot of the resultant supernatant was then mixed with an equal volume of ice-cold acetonitrile, centrifuged (2° C. at 10,000×g for 10 minutes) and 200 μl was transferred to polypropylene inserts for injection. […]

Marks after values point to notes of the source that are not given here.

gentamicin sulfate [Free Gentamicin]: the “Urine GGT/(creatinine × 0.001) ratio” value in series [1] (Day 0 (before first dose)) is 2.70 ± 1.62 U/mmol; in series [1] (Day 3) it was 3.04 ± 1.26 U/mmol; in series [1] (Day 7), 8.75 ± 5.33 U/mmol. For the same substance, the “Urine protein/(creatinine × 0.001) ratio” value in series [1] (Day 0 (before first dose)) is recorded as 23.92 ± 4.61 g/mmol; in series [1] (Day 3) it was 40.53 ± 48.45 g/mmol; in series [1] (Day 7), 34.68 ± 15.79 g/mmol. In addition, the results for the “difference from baseline (day 0) in urine GGT/(creatinine × 0.001) ratio” value in series [1] (Day 3) and in series [1] (Day 7) were 0.34 ± 1.62^a U/mmol and 6.05 ± 4.98^b U/mmol, respectively. The volume of distribution (Vdss) in series [2] (8 foals) turned out to be 0.24 ± 0.11 L/kg. The Vdarea stood at 0.72 ± 0.32 L/kg in series [2] (8 foals, Table 4, listed as FG, 6.6 mg/kg); 0.7 ± 0.3 L/kg in series [2] (Table 1, 6.6 mg/kg); 0.72 ± 0.32 L/kg in series [2] (Table 1, listed as free gentamicin, 6.6 mg/kg).

As usually defined, the Vdss is a proportionality between amount in the body and measured concentration, not a real space.
